The list shows a part of the results, in another mix than the full data.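 Activity criterion: percent growth below 10, measured after cells in 96-well plates were exposed to a single compound concentration for 48 hours.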 Calls of active or inactive are those of the source.
Tests used:
Experiment in all cases: NCI-60 one-dose screen, 48 h (100 = growth as untreated, 0 = no growth, -100 = all killed)
Settings in all cases: 10 µM unless noted
NCI-H23 lung = test system: NCI-H23 lung
NCI-H226 lung = test system: NCI-H226 lung
NCI-H322M lung = test system: NCI-H322M lung
HOP-62 NSCLC = test system: HOP-62 NSCLC
NCI-H460 lung = test system: NCI-H460 lung
HOP-92 NSCLC = test system: HOP-92 NSCLC
NCI-H522 lung = test system: NCI-H522 lung
A549/ATCC NSCLC = test system: A549/ATCC NSCLC
786-0 renal = test system: 786-0 renal
COLO 205 colon = test system: COLO 205 colon
DU-145 prostate = test system: DU-145 prostate
K-562 leukemia = test system: K-562 leukemia
MALME-3M melanoma = test system: MALME-3M melanoma
MDA-MB-231 breast = test system: MDA-MB-231 breast
RXF 393 renal = test system: RXF 393 renal
SF-268 CNS = test system: SF-268 CNS
SF-295 CNS = test system: SF-295 CNS
SF-539 CNS = test system: SF-539 CNS
UACC-257 melanoma = test system: UACC-257 melanoma
M14 melanoma = test system: M14 melanoma

| SMILES | growth (NCI-H23 lung) | growth (NCI-H226 lung) | growth (NCI-H322M lung) | growth (HOP-62 NSCLC) | growth (NCI-H460 lung) | growth (HOP-92 NSCLC) | growth (NCI-H522 lung) | growth (A549/ATCC NSCLC) | growth (786-0 renal) | growth (COLO 205 colon) | growth (DU-145 prostate) | growth (K-562 leukemia) | growth (MALME-3M melanoma) | growth (MDA-MB-231 breast) | growth (RXF 393 renal) | growth (SF-268 CNS) | growth (SF-295 CNS) | growth (SF-539 CNS) | growth (UACC-257 melanoma) | growth (M14 melanoma) |
| --- | --- | --- | --- | --- | --- | --- | --- | --- | --- | --- | --- | --- | --- | --- | --- | --- | --- | --- | --- | --- |
| Cc1nn(Cc2ccccc2)c(C)c1C1(O)C[C@H](CC#N)OC1=O (some centres undefined) | inactive: 133% | inactive: 110% | inactive: 129% | inactive: 104% | inactive: 123% | inactive: 112% | inactive: 109% | inactive: 115% | inactive: 116% | inactive: 116% | inactive: 106% | inactive: 121% | inactive: 117% | inactive: 114% | inactive: 137% | inactive: 121% | inactive: 135% | inactive: 124% | inactive: 118% | inactive: 54.4% |
| CCOP(=O)(NC1CCCCC1)OCC | inactive: 111% | inactive: 102% | inactive: 95% | inactive: 104% | inactive: 108% | inactive: 92.6% | inactive: 93.1% | inactive: 100% | inactive: 103% | inactive: 111% | inactive: 112% | inactive: 98.1% | inactive: 116% | inactive: 105% | inactive: 123% | inactive: 99% | inactive: 108% | inactive: 104% | inactive: 101% | inactive: 101% |
| NC1=NCC(Br)CS1 (centres undefined) | inactive: 94.6% | inactive: 103% | inactive: 106% | inactive: 107% | inactive: 102% | inactive: 76.5% | inactive: 92.6% | inactive: 90% | inactive: 90.6% | inactive: 113% | inactive: 100% | inactive: 99% | inactive: 102% | inactive: 92.8% | inactive: 109% | inactive: 108% | inactive: 102% | inactive: 111% |  | inactive: 92.6% |
| O=[N+]([O-])c1ccc(Nc2ccc(Oc3ccc([N+](=O)[O-])cc3[N+](=O)[O-])cc2)c([N+](=O)[O-])c1 | inactive: 75.2% | inactive: 83.6% | inactive: 97.5% | inactive: 101% | inactive: 94.4% | inactive: 72.3% | inactive: 47.9% | inactive: 83.4% | inactive: 81% | inactive: 114% | inactive: 97.9% | inactive: 39.1% | inactive: 71.7% | inactive: 79.8% | inactive: 54.2% | inactive: 85.7% | inactive: 96.9% | inactive: 82.2% | inactive: 94.7% | inactive: 80.9% |
| CN(C)C(=O)NP(=O)(N(C)C)N(C)C | inactive: 97.6% | inactive: 99.3% | inactive: 112% | inactive: 115% | inactive: 113% | inactive: 100% | inactive: 107% | inactive: 97% | inactive: 106% | inactive: 105% | inactive: 107% | inactive: 95.8% | inactive: 96.6% | inactive: 101% | inactive: 105% | inactive: 104% | inactive: 103% | inactive: 97.4% |  | inactive: 110% |
| CCCCOP(N)(=O)OCCCC | inactive: 106% | inactive: 101% | inactive: 98.8% | inactive: 108% | inactive: 108% | inactive: 99.2% | inactive: 89.7% | inactive: 104% | inactive: 106% | inactive: 107% | inactive: 110% | inactive: 116% | inactive: 98.1% | inactive: 101% | inactive: 110% | inactive: 115% | inactive: 111% | inactive: 99.2% | inactive: 95.1% | inactive: 98.7% |
| O=C1OP(=O)(Cl)Oc2ccccc21 (centres undefined) | inactive: 101% | inactive: 101% | inactive: 98.3% | inactive: 93.5% | inactive: 109% | inactive: 84.1% | inactive: 87% | inactive: 87.5% | inactive: 102% | inactive: 119% | inactive: 107% | inactive: 98.5% | inactive: 108% | inactive: 104% | inactive: 117% | inactive: 101% | inactive: 103% | inactive: 97.1% | inactive: 95.7% | inactive: 112% |
| O=C(Nc1ccc([N+](=O)[O-])cc1)N(CCBr)CCBr | inactive: 101% | inactive: 99.3% | inactive: 94.8% | inactive: 109% | inactive: 107% | inactive: 82.9% | inactive: 94.8% | inactive: 90.1% | inactive: 95% | inactive: 108% | inactive: 114% | inactive: 104% | inactive: 96.1% | inactive: 110% | inactive: 104% | inactive: 102% | inactive: 95.5% | inactive: 97% | inactive: 99.4% | inactive: 97.7% |
| NCCNCCCl | inactive: 107% | inactive: 99.2% | inactive: 114% | inactive: 105% | inactive: 111% | inactive: 90.2% | inactive: 103% | inactive: 96.2% | inactive: 105% | inactive: 115% | inactive: 118% | inactive: 113% | inactive: 124% | inactive: 110% | inactive: 133% | inactive: 101% | inactive: 108% | inactive: 104% | inactive: 89.7% | inactive: 103% |
| O=C(OCCNCCCl)c1ccccc1 | inactive: 109% | inactive: 97.4% | inactive: 106% | inactive: 108% | inactive: 103% | inactive: 101% | inactive: 103% | inactive: 101% | inactive: 102% | inactive: 123% | inactive: 114% | inactive: 106% | inactive: 101% | inactive: 114% | inactive: 114% | inactive: 113% |  | inactive: 101% | inactive: 97.7% | inactive: 102% |
| O=C(Oc1c(Cl)cc(Cl)cc1[N+](=O)[O-])c1cc([N+](=O)[O-])cc([N+](=O)[O-])c1 | inactive: 97.3% | inactive: 97.4% | inactive: 110% | inactive: 103% | inactive: 101% | inactive: 81.9% | inactive: 110% | inactive: 101% | inactive: 103% | inactive: 120% | inactive: 114% | inactive: 87.5% | inactive: 132% | inactive: 109% | inactive: 109% | inactive: 101% | inactive: 106% | inactive: 105% | inactive: 101% | inactive: 101% |
| Cc1ccc(SP(=O)(CCl)N(CCCl)CCCl)cc1 (centres undefined) | inactive: 104% | inactive: 97.5% | inactive: 105% | inactive: 111% | inactive: 103% | inactive: 72.3% | inactive: 71.8% | inactive: 92.7% | inactive: 100% | inactive: 111% | inactive: 109% | inactive: 103% | inactive: 107% | inactive: 105% | inactive: 94.3% | inactive: 101% |  | inactive: 96.3% | inactive: 94.4% | inactive: 105% |
| O=[N+]([O-])c1ccc(Oc2cccc(Oc3ccc([N+](=O)[O-])cc3[N+](=O)[O-])c2)c([N+](=O)[O-])c1 | inactive: 66.8% | inactive: 68.8% | inactive: 98% | inactive: 99.5% | inactive: 106% | inactive: 66.9% | inactive: 21.5% | inactive: 95.5% | inactive: 64.9% | inactive: 105% | inactive: 98.6% | active: 5.47% | inactive: 69.2% | inactive: 65.9% | inactive: 88.9% | inactive: 75.8% | inactive: 107% | inactive: 97% | inactive: 93.1% | inactive: 80.4% |
| O=S1(=O)CC(Sc2ccccc2)[C@@H](Cl)C1 (some centres undefined) | inactive: 109% | inactive: 96.8% | inactive: 112% | inactive: 95.3% | inactive: 104% | inactive: 91.1% | inactive: 87% | inactive: 92.4% | inactive: 105% | inactive: 112% | inactive: 111% | inactive: 96.3% | inactive: 116% | inactive: 107% | inactive: 106% | inactive: 102% | inactive: 104% | inactive: 107% | inactive: 115% | inactive: 102% |
| CC(C)(NCCCl)C(O)c1ccccc1 (centres undefined) | inactive: 82.1% | inactive: 88.2% | inactive: 98.4% | inactive: 105% | inactive: 87.9% | inactive: 69.5% | inactive: 58.1% | inactive: 71.3% | inactive: 102% | inactive: 84.9% | inactive: 96.9% | inactive: 87.1% | inactive: 105% | inactive: 90.5% | inactive: 97.2% | inactive: 101% | inactive: 101% | inactive: 94.2% |  | inactive: 91.7% |
| CCN(CCCl)CC1COc2ccccc2O1 (centres undefined) | inactive: 98.2% | inactive: 107% | inactive: 103% | inactive: 91.6% | inactive: 108% | inactive: 109% | inactive: 90.7% | inactive: 93.2% | inactive: 106% | inactive: 108% | inactive: 111% | inactive: 105% | inactive: 103% | inactive: 104% | inactive: 108% | inactive: 108% | inactive: 95.9% | inactive: 98.6% |  | inactive: 101% |

From PubChem BioAssay (NCI)
